Legend:
[1] = biological target: T1, JAK2 JH2 wild-type (Homo sapiens, UniProt O60674); experiment: Fluorescence polarization binding assay, Bodipy FL-ATP tracer
T1 construct: Human JAK2 JH2 (503-827); hexa histidine-tag (C); made in house; host or cells: High Five or Sf9 insect cells

Chains of the proteins cited; added tags and fusions are not shown. Lines headed by an entry give the natural chain unless they say otherwise; changes in a name come on top. Residues count along the entry.
UniProt O60674, 503-827: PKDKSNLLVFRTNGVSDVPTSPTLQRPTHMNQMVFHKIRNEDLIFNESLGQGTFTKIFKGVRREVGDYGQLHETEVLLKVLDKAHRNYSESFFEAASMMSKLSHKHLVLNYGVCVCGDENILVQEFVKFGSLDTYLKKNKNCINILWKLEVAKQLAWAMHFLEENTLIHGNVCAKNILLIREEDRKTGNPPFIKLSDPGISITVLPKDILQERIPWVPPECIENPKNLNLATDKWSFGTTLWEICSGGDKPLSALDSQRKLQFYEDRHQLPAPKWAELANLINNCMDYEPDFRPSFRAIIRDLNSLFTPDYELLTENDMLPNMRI
UniProt O60674, 836-1132 D976N: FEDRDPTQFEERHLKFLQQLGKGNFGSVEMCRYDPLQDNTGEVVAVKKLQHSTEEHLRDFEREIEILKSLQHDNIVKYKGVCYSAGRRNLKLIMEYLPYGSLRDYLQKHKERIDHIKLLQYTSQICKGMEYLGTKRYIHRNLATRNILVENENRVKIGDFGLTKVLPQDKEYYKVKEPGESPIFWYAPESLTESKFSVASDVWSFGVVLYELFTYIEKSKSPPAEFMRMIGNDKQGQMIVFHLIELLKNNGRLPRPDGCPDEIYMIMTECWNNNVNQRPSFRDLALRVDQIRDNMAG
UniProt O60674, 545-809 V617F limits assumed: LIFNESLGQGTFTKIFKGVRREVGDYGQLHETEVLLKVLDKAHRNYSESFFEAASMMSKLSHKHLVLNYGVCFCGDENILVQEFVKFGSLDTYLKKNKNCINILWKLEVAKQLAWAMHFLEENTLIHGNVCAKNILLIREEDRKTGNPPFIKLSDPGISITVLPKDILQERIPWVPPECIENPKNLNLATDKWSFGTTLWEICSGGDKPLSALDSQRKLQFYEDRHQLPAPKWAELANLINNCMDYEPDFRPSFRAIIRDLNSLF
UniProt P23458, 553-836: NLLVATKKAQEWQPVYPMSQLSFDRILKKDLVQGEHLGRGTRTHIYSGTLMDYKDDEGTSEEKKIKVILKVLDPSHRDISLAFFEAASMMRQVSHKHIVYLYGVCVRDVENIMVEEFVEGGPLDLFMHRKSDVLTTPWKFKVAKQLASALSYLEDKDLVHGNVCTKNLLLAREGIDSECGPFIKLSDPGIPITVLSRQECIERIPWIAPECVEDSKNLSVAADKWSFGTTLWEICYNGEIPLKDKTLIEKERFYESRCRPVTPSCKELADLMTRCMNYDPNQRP
UniProt P52333, 811-1124 D949N: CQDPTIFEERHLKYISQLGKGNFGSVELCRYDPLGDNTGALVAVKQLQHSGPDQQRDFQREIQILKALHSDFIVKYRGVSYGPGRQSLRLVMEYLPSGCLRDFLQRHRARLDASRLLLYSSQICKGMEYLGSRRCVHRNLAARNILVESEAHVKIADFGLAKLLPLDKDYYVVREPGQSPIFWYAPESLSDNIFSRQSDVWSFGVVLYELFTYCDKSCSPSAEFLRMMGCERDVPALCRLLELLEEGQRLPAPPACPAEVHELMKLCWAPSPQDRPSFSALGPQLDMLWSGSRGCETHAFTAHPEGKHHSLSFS
UniProt P29597, 564-876: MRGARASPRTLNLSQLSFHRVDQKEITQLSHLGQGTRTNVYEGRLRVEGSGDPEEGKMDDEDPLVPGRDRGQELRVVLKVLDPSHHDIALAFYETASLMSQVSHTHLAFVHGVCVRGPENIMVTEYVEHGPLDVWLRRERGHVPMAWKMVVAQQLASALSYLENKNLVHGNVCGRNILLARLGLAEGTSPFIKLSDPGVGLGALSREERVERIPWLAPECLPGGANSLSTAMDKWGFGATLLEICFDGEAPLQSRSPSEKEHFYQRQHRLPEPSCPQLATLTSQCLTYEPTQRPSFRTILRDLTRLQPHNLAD

[2] = biological target: T2, JAK2 JH2 (Homo sapiens, UniProt O60674); experiment: More sensitive FP binding assay, Bodipy FL-labeled JNJ-7706621 tracer
T2 construct: Human JAK2 JH2 (503-827); hexa histidine-tag (C); made in house; host or cells: High Five or Sf9 insect cells

[3] = biological target: T3, JAK2 JH1 D976N (Homo sapiens, UniProt O60674, D976N); experiment: Fluorescence polarization binding assay, Bodipy FL-ATP tracer
[4] = biological target: JAK1 JH2 (Homo sapiens, UniProt P23458); experiment: More sensitive FP binding assay, Bodipy FL-labeled JNJ-7706621 tracer; conditions: from Table 2 binding IC50
[5] = biological target: JAK3 JH1 D949N (Homo sapiens, UniProt P52333, D949N); experiment: as above
[6] = biological target: TYK2 JH2 (Homo sapiens, UniProt P29597); experiment: as above
[7] = biological target: T4, TYK2 JH1 D1023N (Homo sapiens, UniProt P29597, D1023N); experiment: as above
T4 sequence (P29597 886-1187 D1023N): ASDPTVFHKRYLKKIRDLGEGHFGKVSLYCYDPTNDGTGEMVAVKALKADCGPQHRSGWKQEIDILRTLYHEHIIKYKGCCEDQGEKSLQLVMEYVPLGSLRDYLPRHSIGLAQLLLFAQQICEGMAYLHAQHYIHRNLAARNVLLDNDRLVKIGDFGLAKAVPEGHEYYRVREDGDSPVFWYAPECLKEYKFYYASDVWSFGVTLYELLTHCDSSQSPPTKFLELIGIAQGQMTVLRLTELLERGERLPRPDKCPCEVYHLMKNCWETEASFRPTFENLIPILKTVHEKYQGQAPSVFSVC

[8] = biological target: T3, JAK2 JH1 D976N; experiment: as above; parameters: JAK2 JH1 (836-1132) D976N; hexa histidine-tag (C); made in house; host or cells: High Five or Sf9 insect cells
[9] = biological target: T5, JAK2 JH2 V617F (Homo sapiens, UniProt O60674, V617F); experiment: Fluorescence polarization binding assay, Bodipy FL-ATP tracer; parameters: Hyperactive mutation V617F in the JAK2 regulatory pseudokinase domain (JH2); His tag (C); made in house; host or cells: High Five or Sf9 insect cells
[10] = biological target: T5, JAK2 JH2 V617F; experiment: More sensitive FP binding assay, Bodipy FL-labeled JNJ-7706621 tracer; parameters: Hyperactive mutation V617F in the JAK2 regulatory pseudokinase domain (JH2); His tag (C); made in house; host or cells: High Five or Sf9 insect cells

Question: How did the IC50 [1] turn out when `c1nc2nc(Nc3ccc(N4CCOCC4)cc3)nc(NC3CCCCC3)c2[nH]1` [Compound 7, Reversine, reference compound] was run?
Answer: The IC50 was at most 3500 nM.

Question: What about the IC50 [2] of the same compound?
Answer: The IC50 was 1300 nM.

Question: What about the IC50 [3] of the same compound?
Answer: Its IC50 is at most 3500 nM.

Question: And the “JAK1 binding JH2-selective over JH1” value [4]?
Answer: The value was 2 fold.

Question: And the IC50 [5]?
Answer: The IC50 was 300 nM.

Question: What about the IC50 [6] of the same compound?
Answer: Its IC50 is 60 nM.

Question: What about the “TYK2 binding JH2-selective over JH1” value ([6]; from Table 2 binding IC50) of the same compound?
Answer: The value was 2 fold.

Question: And the IC50 [7]?
Answer: Its IC50 is 120 nM.

Question: What about the IC50 [8] of the same compound?
Answer: Its IC50 is 680 nM.

Question: And the IC50 [9]?
Answer: Its IC50 is at most 3500 nM.

Question: What about the IC50 [10] of the same compound?
Answer: The IC50 was 1900 nM.

Source: article PMC9865020, “Identification of Novel Small Molecule Ligands for JAK2 Pseudokinase Domain” (Pharmaceuticals, 2023)
